Literature values in patent US20210260074A1, “SEIZURE CONTROL COMPOSITIONS AND METHODS OF USING SAME” (published 2021).

Test system: status epilepticus (SE)
Details: nerve agent exposure

CN1[C@@H]2CC[C@H]1C[C@@H](OC(=O)C(CO)c1ccccc1)C2 (stereo partly shown)
time window after exposure in which seizures may be treated: ≤ 5 min
